Values quoted from earlier work in article PMC8800111 (The Journal of Biological Chemistry, 2021).

Conditions: clinical trials for antimicrobial and anticancer effects; cited from earlier work

SMILES: CCc1nc(N)nc(N)c1-c1ccc(Cl)cc1 [pyrimethamine]
- toxicity at therapeutic levels: essentially no toxicity
